Experimental data taken from patent publication US8058233B2, “Modification of feeding behavior using PYY and GLP-1” (Oregon Health and Science University, priority 2002, dated 2011).

How the values were obtained:
[1] = Plasma PYY3-36 after subcutaneous administration to human subjects; type: in vivo; settings: 10 nmoles and 20 nmoles in saline; FIG. 10
[2] = Human study: 90 minute intravenous PYY3-36 infusion, double-blind crossover, non-obese volunteers; type: in vivo

CC[C@H](C)[C@H](N)C(=O)N[C@@H](CCCCN)C(=O)N1CCC[C@H]1C(=O)N[C@@H](CCC(=O)O)C(=O)N[C@@H](C)C(=O)N1CCC[C@H]1C(=O)NCC(=O)N[C@@H](CCC(=O)O)C(=O)N[C@@H](CC(=O)O)C(=O)N[C@@H](C)C(=O)N[C@@H](CO)C(=O)N1CCC[C@H]1C(=O)N[C@@H](CCC(=O)O)C(=O)N[C@@H](CCC(=O)O)C(=O)N[C@@H](CC(C)C)C(=O)N[C@@H](CC(N)=O)C(=O)N[C@@H](CCCN=C(N)N)C(=O)N[C@@H](Cc1ccc(O)cc1)C(=O)N[C@@H](Cc1ccc(O)cc1)C(=O)N[C@@H](C)C(=O)N[C@@H](CO)C(=O)N[C@@H](CC(C)C)C(=O)N[C@@H](CCCN=C(N)N)C(=O)N[C@@H](Cc1cnc[nH]1)C(=O)N[C@@H](Cc1ccc(O)cc1)C(=O)N[C@@H](CC(C)C)C(=O)N[C@@H](CC(N)=O)C(=O)N[C@@H](CC(C)C)C(=O)N[C@H](C(=O)N[C@H](C(=O)N[C@@H](CCCN=C(N)N)C(=O)N[C@@H](CCC(N)=O)C(=O)N[C@@H](CCCN=C(N)N)C(=O)N[C@@H](Cc1ccc(O)cc1)C(N)=O)[C@@H](C)O)C(C)C [PYY3-36]
plasma levels of PYY3-36 after subcutaneous administration [1]: raised plasma levels
time for plasma concentrations to return to basal post-infusion ([2]; after 90 minute infusion): ≤ 30 min
scores for sleepiness or sickness ([2]; infusion): but not in the scores for sleepiness or sickness
sensations of fullness or nausea ([2]; reported by the volunteers): no difference
